# Experimental data published in PMC7466261, “In Silico and In Vitro Analysis of Multifunctionality of Animal Food-Derived Peptides” (Foods, 2020).
# The chains behind the UniProt entries cited, without tags or fusion partners. Where a name states a change or a piece, a line headed by the entry shows the natural chain unless it says otherwise.
# UniProt P02662: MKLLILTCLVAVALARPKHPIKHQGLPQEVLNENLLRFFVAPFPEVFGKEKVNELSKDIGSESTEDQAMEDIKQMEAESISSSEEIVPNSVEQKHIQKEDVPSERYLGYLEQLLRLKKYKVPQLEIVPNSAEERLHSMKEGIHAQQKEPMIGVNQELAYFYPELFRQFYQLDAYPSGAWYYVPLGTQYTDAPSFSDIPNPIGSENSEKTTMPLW
# Experiments:
# [1] = ABTS assay (TEAC); conditions: mean ± SD
# Protocol: Antioxidant activity was measured using a previously optimized method with some modifications. A mixture of 7 mM ABTS stock solution and 2.45 mM potassium persulfate was kept in the dark at room temperature for 12-16 h to form the ABTS radical cation (ABTS^•+). The ABTS^•+ solution was diluted in 5 mM of phosphate buffer solution (PBS) (pH 7.4) to an absorbance of 0.70 ± 0.02 at 734 nm at 30 °C. Two mL of diluted ABTS^•+ solution were mixed with 20 μL of sample or Trolox (0–0.015 μmol), and the absorbance was recorded at 734 nm after 10 min incubation at 30 °C. The Trolox equivalent antioxidant capacity (TEAC) value was expressed as μmol TE per μmol peptide. Each sample was analyzed in triplicate.
# [2] = MBPDB; cited from earlier work
# [3] = Oxygen radical absorbance capacity (ORAC)-FL assay; conditions: mean ± SD
# Protocol: An oxygen radical absorbance capacity (ORAC)-FL assay was used based on the protocol previously optimized. The reaction was performed at 37 °C in 75 mM phosphate buffer (pH 7.4). The final assay mixture volume was 200 µL, containing 70 nM FL, 12 mM AAPH, and antioxidant [(Trolox, 1–8 µM) or sample (at different concentrations)]. Fluorescence was measured during 137 min in a FLUOstar OPTIMA plate reader (BMG Labtech) with 485 nm excitation and 520 nm emission filters. The equipment was controlled by the FLUOstar Control ver. 1.32 R2 software for fluorescence measurement. Samples were analyzed in triplicate. The final ORAC-FL value was expressed as μmol Trolox equivalents (TE) per μmol peptide.
substance,measurement,setting,value
"RY: synthetic peptide, αS1-casein f(90–91) (UniProt P02662 105-106, looked up, fragment)",Antioxidant Activity TEAC,[1],1.38 ± 0.03 µmol TE/µmol peptide
same,ORAC,[2],ORAC = 1.94 µmol TE/µmol peptide **
same,Antioxidant Activity ORAC,[3],1.83 ± 0.13 µmol TE/µmol peptide
